Reference: EP4631502A1 (Nicoventures Trading Limited, priority 2024, dated 2025)

Chains of the proteins cited; added tags and fusions are not shown.
UniProt P30542, whole entry: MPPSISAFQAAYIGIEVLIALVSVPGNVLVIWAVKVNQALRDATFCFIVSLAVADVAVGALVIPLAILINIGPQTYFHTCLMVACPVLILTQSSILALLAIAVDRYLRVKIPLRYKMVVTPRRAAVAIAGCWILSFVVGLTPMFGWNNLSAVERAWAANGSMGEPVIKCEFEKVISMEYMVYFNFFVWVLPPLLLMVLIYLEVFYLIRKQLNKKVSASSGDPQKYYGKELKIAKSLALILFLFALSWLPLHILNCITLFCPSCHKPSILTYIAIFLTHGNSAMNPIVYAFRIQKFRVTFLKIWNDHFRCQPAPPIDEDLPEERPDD

Assays:
[1] = molecular target: T1, Human adenosine A1 receptors (Homo sapiens, UniProt P30542); assay: Adenosine A1 receptor functional assay ([35S]-GTPγS binding, assay conditions II); settings: 1. and 2. Measurement
[2] = molecular target: T1, Human adenosine A1 receptors; assay: biochemical

Compound: COc1ccc(-c2cc(=O)c3c(OC)c(OC)c(OC)cc3o2)cc1 [Tetramethylscutallarein, Scutallarein tetramethyl ether]
- IC50 ([1]; IC50 in µM agonist mode, agonist mode (effect on basal signal)): 2 µM and 7 µM
- IC50 ([1]; IC50 in µM antagonist mode, antagonist mode (CCPA-stimulated signal)): 9 µM and 13 µM
- IC50 ([2]; IC50 1.M, first measurement, [3H]-DPCPX 1 nM, 60 min, 27°C): 4.8 µM
- IC50 ([2]; IC50 2.M, second measurement, [3H]-DPCPX 1 nM, 60 min, 27°C): 9.3 µM
- IC50 ([2]; IC50 Mean, mean of 1.M and 2.M): 7.1 µM

Several values for one entry are separate records, joined by “and”; a condition that tells them apart may be missing. Identical values can stand only once.
